Experimental data as given in ChEMBL document CHEMBL1130431, “Synthesis and biochemical evaluation of N-(4-phenylthiazol-2-yl)benzenesulfonamides as high-affinity inhibitors of kynurenine 3-hydroxylase” (J Med Chem, 1997).

How the values were obtained:
Conditions in all cases: Gerbillinae
[1] = test system: Kynurenine 3-monooxygenase (Meriones unguiculatus); assay: Compound was evaluated for ex vivo inhibition of Kynurenine 3-hydroxylase activity in brain from Gerbils after injecting perorally
[2] = test system: Kynurenine 3-monooxygenase (Meriones unguiculatus); assay: Compound was evaluated for ex vivo inhibition of Kynurenine 3-hydroxylase activity in Kidney from Gerbils after injecting perorally
[3] = test system: Kynurenine 3-monooxygenase (Meriones unguiculatus); assay: Compound was evaluated for ex vivo inhibition of Kynurenine 3-hydroxylase activity in Liver from Gerbils after injecting perorally

## Nc1ccc(S(=O)(=O)Nc2nc(-c3cc(C(F)(F)F)ccc3F)cs2)cc1
[1]
  ED50: 3 µmol/kg
[2]
  ED50: 0.9 µmol/kg
[3]
  ED50: 0.7 µmol/kg
